Measured values as given in US6391876B1 (Pharmacia and Upjohn Company, priority 1998, dated 2002).

Experiments:
[1] = system: patients with panic Disorder with or without Agoraphobia; conditions: vs placebo, at some point in time
[2] = different animal models
Text: Leonard-BE, “Noradrenaline in basic models of depression.” European-Neuropsychopharmacol. April 1997; 7 Suppl 1: S11-6; discussion S71-3.

[3] = in vivo

SMILES: CCOc1ccccc1OC(c1ccccc1)C1CNCCO1 (stereo not shown) [reboxetine]
- ability to desensitize ν-adrenergic receptor function (ν-adrenergic receptor): ability to desensitize
- occupational functioning [1]: better
- anti-cholinergic activity [2]: only weak or no anti-cholinergic activity
- antireserpine activity [3]: potent antireserpine activity
